Assay results reported in ChEMBL document CHEMBL2086370 (J Med Chem, 2012).

Amino acid sequences for entries named in this document (tags omitted). A change or cut given only in a name is not applied to a line headed by its entry.
UniProt P41146: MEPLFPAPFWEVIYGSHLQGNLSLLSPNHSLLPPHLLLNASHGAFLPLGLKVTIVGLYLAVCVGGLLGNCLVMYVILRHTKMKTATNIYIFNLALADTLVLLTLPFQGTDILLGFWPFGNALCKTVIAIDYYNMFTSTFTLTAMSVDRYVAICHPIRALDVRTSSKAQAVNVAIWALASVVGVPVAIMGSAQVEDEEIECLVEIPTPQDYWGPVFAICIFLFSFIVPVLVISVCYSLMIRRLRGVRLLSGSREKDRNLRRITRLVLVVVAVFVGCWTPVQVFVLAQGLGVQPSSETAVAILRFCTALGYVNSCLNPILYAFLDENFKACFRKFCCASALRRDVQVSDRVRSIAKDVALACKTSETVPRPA

Experiments:
Nucleic Acid [1] = assay: Ratio of drug level in hypothalamus to striatum in Harlan Sprague-Dawley rat at 6 ug/ml, iv up to 60 mins by LC-MS/MS analysis; conditions: in vivo, 1 h, strain Harlan Sprague-Dawley
Nociceptin receptor = Nociceptin receptor (Homo sapiens, UniProt P41146); assay: Displacement of [3H]Nociceptin from human recombinant NOP receptor expressed in CHO cells by scintillation counter
[2] = Lipophilicity, log D of the compound at pH 7.4 by potentiometric method; conditions: buffer
Nucleic Acid [3] = assay: Ratio of drug level in hypothalamus to striatum in Harlan Sprague-Dawley rat at 3 ug/kg, iv after 40 mins by LC-MS/MS analysis; conditions: in vivo, 0.003 mg/kg, strain Harlan Sprague-Dawley

Structure (SMILES) | Ratio (Nucleic Acid [1]) | Ki (Nociceptin receptor) [nM] | other results
CN(C)C(=O)C(Cc1ccccc1F)CN1CCC2(CC1)OCCc1cc(Cl)sc12.O=C(O)C(O)C(O)C(=O)O (stereo unspecified) | 1.9 | – | –
COC(=O)CN1CN(c2ccccc2)C2(CCN(Cc3cccc4ccccc34)CC2)C1=O | 3 | – | –
CN(C)C(=O)C(Cc1ccccc1F)CN1CCC2(CC1)OCCc1cc(F)sc12 (stereo unspecified) | – | 0.396 | –
CN(C)C(=O)C(CN1CCC2(CC1)OCCc1cc(F)sc12)Cn1cccn1.O=C(O)C(O)C(O)C(=O)O (stereo unspecified) | 3.5 | – | –
CNC(=O)C(Cc1ccccc1Cl)CN1CCC2(CC1)OCCc1cc(Cl)sc12 (stereo unspecified) | 1.9 | 0.124 | –
CN(C)C(=O)C(Cc1c(F)cccc1F)CN1CCC2(CC1)OCCc1ccsc12 (racemic) | – | > 10 | –
CNC(=O)C(Cc1ccccc1F)CN1CCC2(CC1)OCCc1cc(Cl)sc12 (single isomer, unassigned; (-)) | 1.6 | 0.127 | –
FCC(Cc1ccccc1Cl)CN1CCC2(CC1)OCCc1ccsc12 (stereo unspecified) | – | > 10 | –
CN(C)C(=O)C(Cc1ccccc1)CN1CCC2(CC1)OCCc1ccsc12 (stereo unspecified) | – | 9.4 | –
CN(C)C(=O)C(CN1CCC2(CC1)OCCc1cc(F)sc12)Cn1cccn1 (stereo unspecified) | – | 0.248 | –
CN(C(=O)C(Cc1ccccc1Cl)CN1CCC2(CC1)OCCc1cc(F)sc12)C1CC1 (single isomer, unassigned; (-)) | 0.9 | 0.194 | –
CCn1c(=O)n([C@@H]2CCN(CC3CCCCCCC3)C[C@H]2CO)c2ccccc21 | – | – | logD [2]: 3.36
CN(C)C(=O)C(Cc1ccccn1)CN1CCC2(CC1)OCCc1ccsc12 (stereo unspecified) | – | > 10 | –
CN(C)C(=O)C(Cc1ccccc1F)CN1CCC2(CC1)OCCc1cc(Cl)sc12 (stereo unspecified) | – | 0.0892 | –
CN(C)C(=O)C(CN1CCC2(CC1)OCCc1ccsc12)Cn1cccn1.O=C(O)C(O)C(O)C(=O)O (stereo unspecified) | 0.8 | – | –
CN(C)C(=O)[C@@H](Cc1ccccc1F)CN1CCC2(CC1)OCCc1cc(F)sc12.O=C(O)C(O)C(O)C(=O)O | – | – | Ratio (Nucleic Acid [3]): 3.5
CN(C)C(=O)C(Cc1cscn1)CN1CCC2(CC1)OCc1ccc(F)cc12 (stereo unspecified) | 1.3 | 1.64 | –
NC(=O)C(Cc1ccccc1Cl)CN1CCC2(CC1)OCCc1cc(Cl)sc12 (stereo unspecified) | 1.5 | 0.0373 | –
COCC(Cc1ccccc1Cl)CN1CCC2(CC1)OCCc1ccsc12 (stereo unspecified) | – | > 40 | –
CN(C(=O)C(Cc1ccccc1F)CN1CCC2(CC1)OCCc1cc(F)sc12)C1CC1 (single isomer, unassigned; (-)) | 1.8 | 0.0672 | –
CNC(=O)Cn1c(=O)n(C2CCN([C@@H]3Cc4cccc5cccc3c45)CC2)c2ccccc21 | 0 | – | –
CN(C)C(=O)C(Cc1ccccc1Cl)CN1CCC2(CC1)OCCc1cc(Cl)sc12.O=C(O)C(O)C(O)C(=O)O (stereo unspecified) | 2 | – | –
COc1ccccc1CC(CN1CCC2(CC1)OCCc1ccsc12)C(=O)N(C)C (stereo unspecified) | – | > 10 | –
ClCC(Cc1ccccc1Cl)CN1CCC2(CC1)OCCc1ccsc12 (stereo unspecified) | – | > 40 | –
CN(C)C(=O)C(Cc1ccccc1Cl)CN1CCC2(CC1)OCCc1cc(Cl)sc12 (stereo unspecified) | – | 0.169 | –
CN(C)C(=O)C(Cc1ccccc1Cl)CN1CCC2(CC1)OCCc1cc(F)sc12 (single isomer, unassigned; (+)) | – | 0.134 | Ratio (Nucleic Acid [3]): 2.2
N#CC(Cc1ccccc1Cl)CN1CCC2(CC1)OCCc1ccsc12 (stereo unspecified) | – | > 40 | –
CN(C)C(=O)C(Cc1ccccc1F)CN1CCC2(CC1)OCCc1ccsc12 (racemic) | – | 5.16 | –
CN(C)C(=O)[C@@H](Cc1ccccc1F)CN1CCC2(CC1)OCCc1cc(F)sc12 | – | 0.114 | –
